{"source": "patent US20250064809A1", "about": "“Inhibitors of Mutant RET Kinases for use in Treating Cancer” (Stemline Therapeutics, Inc., priority 2021, published 2025)", "assay_in_all_cases": "In vitro cell viability assay (CellTiter-Glo)", "assay_type_in_all_cases": "cell-based", "details_in_all_cases": "Mus musculus, BaF3, 72 h", "key": {"Ba/F3 KIF5B-RET": {"test_system": "Ba/F3 KIF5B-RET"}, "Ba/F3 KIF5B-RET-G810R": {"test_system": "Ba/F3 KIF5B-RET-G810R"}, "Ba/F3 KIF5B-RET-G810C": {"test_system": "Ba/F3 KIF5B-RET-G810C"}, "Ba/F3 KIF5B-RET-G810S": {"test_system": "Ba/F3 KIF5B-RET-G810S"}}, "data": [{"compound": "CNC(=O)c1ccc2c(Cl)c(-c3nn(C(C)(C)C)c4ncnc(N)c34)[nH]c2c1", "note": "[Compound A]", "values": [{"measurement": "IC50", "setting": "Ba/F3 KIF5B-RET", "result": 20, "unit": "nM"}, {"measurement": "IC50", "setting": "Ba/F3 KIF5B-RET-G810R", "result": 37.4, "unit": "nM"}, {"measurement": "IC50", "setting": "Ba/F3 KIF5B-RET-G810C", "result": 42.4, "unit": "nM"}, {"measurement": "IC50", "setting": "Ba/F3 KIF5B-RET-G810S", "result": 28.7, "unit": "nM"}]}]}
